The record followed here is PubChem BioAssay AID932 (The Scripps Research Institute Molecular Screening Center, 2007).

The list shows a part of the results, in another mix than the full data. Active and inactive are the calls of the source.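 The calls were made as follows: active = activation above the screen-wide mean activation plus 3 SD (cut at about 130% in these data); inactive = the rest.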

A short description of the test: potentiators of IFN-gamma driven STAT1 reporter – cell-based, HTS, luciferase reporter, primary screen (AID 932).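 Also: raw ratio to IFN-gamma control signal so 100% means no change and 0% no light.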 Conditions: NIH 3T3 STAT1-luciferase reporter, luminescence, at 5.5 µM, active compounds read high, 100% = IFN-gamma alone, no compound.
`CP(=O)(OC12CC3CC(CC(C3)C1)C2)OC12CC3CC(CC(C3)C1)C2`: the activation (% of control) is inactive: 88.8%.
Turning to `CCOC(=O)c1ccc(NP(C)(=O)Oc2ccc(Cl)cc2)cc1` (stereo not given), the activation (% of control) is inactive: 96.1%.
On to `CP(=O)(Nc1ccc(Cl)cc1)Oc1ccc(F)cc1` (stereo not given), for which the activation (% of control) is inactive: 92.7%.
With `CC(C)(C)c1ccc(OP(C)(=O)O)cc1`, the activation (% of control) was inactive: 103%.
Consider `COc1ccccc1OP(C)(=O)Nc1ccccc1Br` (stereo not given), for which the activation (% of control) is inactive: 106%.
With `CN(C)C(=O)c1c([N+](=O)[O-])cc([N+](=O)[O-])cc1[N+](=O)[O-]`, the activation (% of control) is inactive: 99.4%.
Consider `COc1ccc(OP(C)(=O)Nc2ccc(Br)cc2)cc1` (stereo not given), for which the activation (% of control) was inactive: 95.5%.
For the molecule `CCN(CC)CC(O)COC(=O)C(O)(c1ccccc1)C1CCCCC1` (stereo not given), the activation (% of control) is inactive: 105%.
Consider `CCc1ccc(OP(C)(=O)Nc2cccnc2)cc1` (stereo not given), for which the activation (% of control) was inactive: 100%.
In the case of `CP(=O)(Oc1ccccc1)N1CCOC1=O` (stereo not given), the activation (% of control) is inactive: 99.9%.
With `COc1ccccc1OP(C)(=O)Nc1c(C)n(C)n(-c2ccccc2)c1=O` (stereo not given), the activation (% of control) is inactive: 94.9%.
For the molecule `O=[N+]([O-])c1cc([N+](=O)[O-])c(Nc2ccccn2)c([N+](=O)[O-])c1`, the activation (% of control) was inactive: 71.9%.
`Cc1c(NP(C)(=O)Oc2ccc(C(C)C)cc2)c(=O)n(-c2ccccc2)n1C` (stereo not given): the activation (% of control) is inactive: 104%.
As to `CCc1ccc(OP(C)(=O)O)cc1`, the activation (% of control) is inactive: 95.7%.
As for `COc1ccccc1OP(C)(=O)Nc1ccc(C)cc1C` (stereo not given), the activation (% of control) is inactive: 94.7%.
The value for `CP(=O)(Nc1ccccn1)Oc1ccccc1` (stereo not given) was inactive: 101%; that for `CN(C)CCOC(=O)C(O)(c1ccccc1)C1CCCC1` (stereo not given) was inactive: 96%; that for `COc1ccc(OP(C)(=O)Nc2ccccn2)cc1` (stereo not given) was inactive: 100%.
As for `Cc1nc2ccc3ccccc3c2o1.O=[N+]([O-])c1cc([N+](=O)[O-])c(O)c([N+](=O)[O-])c1`, the activation (% of control) is inactive: 105%.
The same measure for `CP(=O)(OCCOc1ccccc1)OCCOc1ccccc1`: inactive: 102%; for `CP(=O)(Nc1ccc(Cl)cc1Cl)Oc1ccccc1` (stereo not given): inactive: 102%.
With `Cc1cc(C)cc(OP(C)(=O)Nc2cccc(C(F)(F)F)c2)c1` (stereo not given), the activation (% of control) was inactive: 98.6%.
For `COc1ccc(OP(C)(=O)Nc2ccccc2Br)cc1` (stereo not given), the activation (% of control) is inactive: 97.2%.
The same measure for `COc1ccccc1OP(C)(=O)Nc1ccc(C)c(C)c1` (stereo not given): inactive: 99%; for `CCN(CC)CCCOC(=O)C(O)(c1ccccc1)C1CCCCC1` (stereo not given): inactive: 98%.
For the molecule `CP(=O)(Nc1ccccc1)Oc1ccc(F)cc1` (stereo not given), the activation (% of control) is inactive: 104%.
As to `COc1ccc(OP(C)(=O)Nc2ccc(SC(F)(F)F)cc2)cc1` (stereo not given), the activation (% of control) is inactive: 100%.
Turning to `CCOC(=O)c1ccc(NP(C)(=O)Oc2ccc(F)cc2)cc1` (stereo not given), the activation (% of control) is inactive: 104%.
Regarding `O=C(OCCN1CCN(CCOCc2ccccc2)CC1)C(O)(c1ccccc1)c1ccccc1`, the activation (% of control) is inactive: 104%.
Turning to `CC(C)c1ccc(OP(C)(=O)Nc2ccc(SC(F)(F)F)cc2)cc1` (stereo not given), the activation (% of control) is inactive: 103%.
Consider `CP(=O)(Nc1ccccc1F)Oc1ccccc1` (stereo not given), for which the activation (% of control) is inactive: 107%.
In the case of `CP(=O)(Nc1ccc2c(c1)OCCO2)Oc1ccccc1` (stereo not given), the activation (% of control) was inactive: 92.9%.
As to `Cc1ccccc1NP(C)(=O)Nc1ccccc1C`, the activation (% of control) is inactive: 97.7%.
For the molecule `CCOP(C)(=S)SCC(=O)NC(C)(CC)C(=O)O` (stereo not given), the activation (% of control) was inactive: 99.1%.
As to `O=[N+]([O-])c1cc([N+](=O)[O-])c(NCC2CCS(=O)(=O)C2)c([N+](=O)[O-])c1` (stereo not given), the activation (% of control) is inactive: 85.4%.
`COc1ccc(OP(C)(=O)Nc2cccc(Br)c2)cc1` (stereo not given): the activation (% of control) was inactive: 99.4%.
The same measure for `COc1ccc(NP(C)(=O)Oc2ccccc2OC)cc1` (stereo not given): inactive: 99.1%; for `CN(C)CCOC(=O)C(O)(c1ccccc1)C1CCCCC1` (stereo not given): inactive: 92.4%; for `COc1ccccc1OP(C)(=O)Nc1c(C)cccc1C` (stereo not given): inactive: 96.8%.
The same measure for `CN1CCCCC1COC(=O)C1(O)c2ccccc2CCc2ccccc21` (stereo not given): inactive: 93.2%; for `CP(=O)(Nc1ccc(SC(F)(F)F)cc1)Oc1ccccc1` (stereo not given): inactive: 93.9%.
Turning to `CCCOc1ccc(NP(C)(=O)Oc2ccc(Cl)cc2)cc1` (stereo not given), the activation (% of control) was inactive: 101%.
Consider `Cc1nc2ccc3ccccc3c2s1.O=[N+]([O-])c1cc([N+](=O)[O-])c(O)c([N+](=O)[O-])c1`, for which the activation (% of control) is inactive: 110%.
For the molecule `O=[N+]([O-])c1cc([N+](=O)[O-])c(-n2nnc3ccccc32)c([N+](=O)[O-])c1`, the activation (% of control) was inactive: 96.6%.
For `CP(=O)(Nc1cccc(Br)c1)Oc1ccccc1` (stereo not given), the activation (% of control) was inactive: 101%.
For `Cc1cc(C)cc(OP(C)(=O)Nc2ccccn2)c1` (stereo not given), the activation (% of control) is inactive: 109%.
`Cc1ccc(C)c(NP(C)(=O)Oc2ccccc2)c1` (stereo not given): the activation (% of control) is inactive: 104%.
The same measure for `Cc1cc(C)cc(OP(C)(=O)Nc2ccc(C)cc2C)c1` (stereo not given): inactive: 107%; for `CCOC(=O)c1ccc(NP(C)(=O)Oc2cc(C)cc(C)c2)cc1` (stereo not given): inactive: 107%.
For `CC1=NCCc2c1[nH]c1ccccc21.O=[N+]([O-])c1cc([N+](=O)[O-])c(O)c([N+](=O)[O-])c1`, the activation (% of control) was inactive: 91.1%.
Turning to `CCOC(=O)c1ccc(NP(C)(=O)Oc2ccccc2)cc1` (stereo not given), the activation (% of control) is inactive: 104%.
`Cc1ccc(NP(C)(=O)Oc2ccccc2)c(C)c1` (stereo not given): the activation (% of control) was inactive: 93.7%.
On to `COc1ccccc1OP(C)(=O)Nc1ccc(C)cc1` (stereo not given), for which the activation (% of control) is inactive: 99.7%.
The same measure for `COc1ccc(OP(C)(=O)Nc2cccc(F)c2)cc1` (stereo not given): inactive: 106%.
Turning to `COc1ccccc1OP(C)(=O)Nc1cc(Cl)ccc1C` (stereo not given), the activation (% of control) was inactive: 92.8%.
Regarding `Cc1cc(C)cc(OP(C)(N)=O)c1` (stereo not given), the activation (% of control) is inactive: 96.3%.
As for `Cc1cccc(C)c1OP(C)(N)=O` (stereo not given), the activation (% of control) was inactive: 92.8%.
Consider `CC(C)(C)c1ccc(OP(C)(=O)Nc2ccc(SC(F)(F)F)cc2)cc1` (stereo not given), for which the activation (% of control) is inactive: 96.3%.
For the molecule `O=[N+]([O-])c1ccc2c(c1)C=Nc1ccccc1O2`, the activation (% of control) is inactive: 102%.
In the case of `CCN(CC)CCCOC(=O)C(O)(c1ccccc1)c1ccccc1`, the activation (% of control) was inactive: 101%.
With `CCOP(C)(=S)SCC(=O)NC(C)C(=O)O` (stereo not given), the activation (% of control) is inactive: 111%.
Take `CCOC(=O)c1ccc(NP(C)(=O)Oc2ccc(OC)cc2)cc1` (stereo not given): the activation (% of control) was inactive: 97.3%.
Consider `CP(=O)(Nc1ccccn1)Oc1ccc(Cl)cc1` (stereo not given), for which the activation (% of control) was inactive: 93.9%.
The value for `CP(=O)(Oc1ccccc1)OC(c1ccccc1)C(F)(F)F` (stereo not given) was inactive: 84.9%; that for `Cc1cccc(C)c1OP(C)(=O)Nc1ccc(SC(F)(F)F)cc1` (stereo not given) was inactive: 104%.
As to `Cc1cc(C)cc(OP(C)(=O)Nc2ccc(SC(F)(F)F)cc2)c1` (stereo not given), the activation (% of control) was inactive: 104%.
Take `CP(=O)(NC(=O)Nc1ccccc1)Oc1ccccc1` (stereo not given): the activation (% of control) was inactive: 97.7%.
`CP(=S)(Nn1cnnc1)Oc1ccccc1` (stereo not given): the activation (% of control) is inactive: 93.8%.
`COc1ccccc1OP(C)(=O)Nc1ccccc1` (stereo not given): the activation (% of control) is inactive: 104%.
In the case of `CP(=O)(Nc1ccccc1Br)Oc1ccccc1` (stereo not given), the activation (% of control) was inactive: 95.4%.
